Experimental data reported in ChEMBL document CHEMBL1221254, “Succinic acid amides as P2-P3 replacements for inhibitors of interleukin-1beta converting enzyme (ICE or caspase 1)” (Bioorg Med Chem Lett, 2010).

What was measured:
[1] = Selectivity ratio of human ICE to caspase 8
[2] = Selectivity ratio of human ICE to caspase 4
[3] = Selectivity ratio of human ICE to caspase 3
[4] = Selectivity ratio of human ICE to caspase 6

| Selectivity ratio [1] | Selectivity ratio [2] | Selectivity ratio [3] | Selectivity ratio [4] | SMILES |
| --- | --- | --- | --- | --- |
| > 200 | > 200 | > 200 | > 200 | Cc1[nH]c2ccccc2c1CCNC(=O)C[C@H](C(=O)N[C@H](C=O)CC(=O)O)C(C)C |
| 53 | 53 | 53 | 53 | O=C[C@H](CC(=O)O)NC(=O)[C@@H]1CCCN2C(=O)CC[C@H](NC(=O)c3nccc4ccccc34)C(=O)N12 [VRT-18858] |
| > 200 | > 200 | > 200 | > 200 | CC(C)[C@H](CC(=O)NCCc1cccc2ncccc12)C(=O)N[C@H](C=O)CC(=O)O |
